For experiment [1], the target named is TGM6-D3 (TGM6 domain 3) (Heligmosomoides polygyrus). Kind of experiment: ITC; TGFBR2 injected into TGM6 or TGM6-D3 in the cell; 25 mM HEPES, 150 mM NaCl, 0.05% NaN3, pH 7.4; global fit of 2 (TGM6) or 3 (TGM6-D3) replicates to a simple 1:1 binding model.
Experiment [2] addresses TGM6 (TGF-β mimic 6), full-length (Heligmosomoides polygyrus). The description is as above.

The chains behind the UniProt entries cited, without tags or fusion partners. Residues count along the entry.
UniProt P37173, 23-166: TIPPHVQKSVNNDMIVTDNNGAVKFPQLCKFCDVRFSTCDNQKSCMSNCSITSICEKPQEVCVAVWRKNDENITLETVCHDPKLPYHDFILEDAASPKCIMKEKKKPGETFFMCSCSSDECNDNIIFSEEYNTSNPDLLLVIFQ

For one substance, Kd results are on record in article PMC11845725.

By Kd is commonly meant a measure of binding affinity in units of concentration. A lower Kd goes with tighter binding. On to “TGFBR2 extracellular domain (TGF-β type II receptor) (from UniProt P37173 23-166)”, for which the Kd in experiment [1] is 440 nM; in experiment [2], 220 nM.
